Measurements taken from patent publication US20220251158A1, “INTERMEDIATE FILAMENT-DERIVED PEPTIDES AND THEIR USES” (UNIVERSITAT DE LLEIDA, priority 2019, published 2022).

Assays:
[1] = system: monocytes; experiment: Apoptosis assay of purified monocytes from NOD bone marrow; type: cell-based, mouse
Experimental: (§1) FIG. 14—Representative dot plots of apoptosis assay of purified monocytes from NOD bone marrow after culturing them with different peptides. Annexin V and PI positive cells were analysed after culturing 4×10^5 monocytes for 24 or 48 hours with peptide 72, or DIF-P, or DIF-P3K, or without stimulus (n=4).
(§2) HL-60, Jurkat and NALM-6 cells were grown and maintained in complete culture medium in a humidified 5% CO2, atmosphere at 37° C. […] After 1 hour, 24 hours or 48 hours, cells were analysed by flow cytometry and culture supernatants stored at −80° C. until use.
(§3) For cell death and apoptosis analysis, 400.000 of primary cells or 100.000 of cell line cells were incubated in 96-well plates in 200 μL of complete culture medium for 24 h at 37° C. and 5% CO2 in the absence or presence of 55 μM of different peptides. After 1 hour, 24 hours or 48 hours, apoptosis was measured by CFBlue Annexin V Apoptosis Detection Kit with PI (ANXVKCFB-100T, Immunostep), following kit protocol. […] Cell suspensions were analysed by flow cytometry using FACS CANTO II instrumentation (BD, Biosciences, San Jose, Calif.) and Flowjo (version 8.7) software.

[2] = system: human PBMC (peripheral blood mononuclear cells); experiment: Apoptosis/pyroptosis and cell death in human PBMC (annexin V/PI, Caspase-1, Caspase-3); type: cell-based; settings: for induction of apoptosis and/or pyroptosis: 55 μM; for pyroptosis (comparison between peptides): Caspase-1 after 1 hour
Experimental: FIG. 6—Representative dot plots of apoptosis assay of human PBMC cells after culturing them with different peptides. Annexin V and PI positive cells were analysed after culturing 4×10^5 cells for 1 hour, 24 hours or 48 hours with peptide 72, or DIF-P, or DIF-P3K, or DIF-P8R or without stimulus (n=4).
(§4) FIG. 7—Representative histograms of activated (cleaved) caspase-1 positive cells from human PBMC cultured with different peptides. 4×10^5 PBMC cells were cultured with peptide 72, or DIF-P, or DIF-P3K, or DIF-P8R, or Nigericin (as a positive control) or without stimulus for an hour and activated caspase-1 was measured with 660-YVAD-FMK (n=4). Positive cell percentage is resumed on the right of the figure (*=p<0.05).
as §4, with “8—Representative” for “7—Representative”, “caspase-3” for “caspase-1”, “staurosporine” for “Nigericin”, “FAM-DEVD-FMK” for “660-YVAD-FMK”, “(*=p<0.05, **=p<0.01).” for “(*=p<0.05).”
For cell death and apoptosis analysis, 400.000 of primary cells or 100.000 of cell line cells were incubated in 96-well plates in 200 μL of complete culture medium for 24 h at 37° C. and 5% CO2 in the absence or presence of 55 μM of different peptides. After 1 hour, 24 hours or 48 hours, apoptosis was measured by CFBlue Annexin V Apoptosis Detection Kit with PI (ANXVKCFB-100T, Immunostep), following kit protocol. For cleaved caspasa-3 intracellular staining, mononuclear cells were permeabilised following the manufacturer's instructions of the FoxP3 Staining Buffer Set (00-5523-00, eBioscience) and the cleaved caspasa-3-Pacific Blue (8788S, Cell Signalling) was used for staining. Cell suspensions were analysed by flow cytometry using FACS CANTO II instrumentation (BD, Biosciences, San Jose, Calif.) and Flowjo (version 8.7) software.
Fluorescent labeled inhibitors of caspases (FLICA) probe assays were performed in order to check intracellular activation of specific caspases and confirm previously obtained flow cytometry results by cleaved caspasa-3 antibody. FLICA staining was achieved following manufacturer's instructions, as described elsewhere (Doitsh, G. et al. Cell death by pyroptosis drives CD4 T-cell depletion in HIV-1 infection. Nature 2014, 505, 509-514), after incubating cells with 55 μM of different Peripherin peptides for 1 hour or 24 hours.
The cytolytic activity (induction of apoptosis and/or pyroptosis) and production of pro-inflammatory cytokines in cell cultures have been analysed for peptides DIF-P, DIF-P3K and DIF-P8R, using peptide 72 as a negative control, in cultures of human PBMC (peripheral blood mononuclear cells). The induction of apoptosis and/or pyroptosis, and cell death was detected by flow cytometry analysis, determining the expression (presence) of annexin V in the cell membrane, and the staining of the cell nucleus with propidium iodide, respectively (FIG. 6). […] The production of pro-inflammatory cytokines (IL-6, IL-1β, TNF-α, IL-12p40, IL-23, IP-10, IFN-γ) is determined after incubation with the stimulus after 24 or 48 hours (FIG. 9).

[3] = system: purified neutrophils; experiment: Apoptosis assay of purified neutrophils from NOD bone marrow; type: cell-based, mouse
Experimental: as §1, with “15—Representative” for “14—Representative”, “neutrophils” for “monocytes”
as §2, §3

[4] = system: NOD.RAG-2−/− mouse splenocytes; experiment: Cytokine release by NOD.RAG-2−/− mouse splenocytes; type: cell-based; settings: NOD.RAG-2−/− splenocytes, 24 h and 48 h
Experimental: FIG. 1—Cytokine concentration from mouse splenocytes cultured with peptides. Results of the analysis of the supernatants of cells incubated for 24 h and 48 h with peptides 72 and DIF-P (n=4); (A) splenocytes from NOD.RAG-2−/− mice; (B) splenocytes from NOD mice.
FIG. 10—Concentrations of different cytokines produced by NOD.RAG2−/− splenocytes cultured with peptides. 4×10^5 cells were incubated per well with peptide 72, or DIF-P, or DIF-P3K, or DIF-P8R, or without stimulus for 24 hours or 48 hours before collecting the supernatant (*=p<0.05, **=p<0.01).
HL-60, Jurkat and NALM-6 cells were grown and maintained in complete culture medium in a humidified 5% CO2, atmosphere at 37° C. […] Human splenocytes from buffy coats were collected by density gradient using Histopaque 1077 (Histopaque®-1077, 10771 sigma) as described elsewhere (Johnston, L., Harding, S. A. & La Flamme, A. C. Comparing methods for ex vivo characterization of human monocyte phenotypes and in vitro responses. Immunobiology 2015, 220, 1305-1310). Cells from bone marrow were obtained disrupting femur and tibia as explained elsewhere too (Liu, X. & Quan, N. Immune Cell Isolation from Mouse Femur Bone Marrow. Bio-protocol 5, 2015). Monocytes and neutrophils from bone marrow were purified using the Stemcell kits (19861 and 19762 subsequently) and the kit protocol was followed. Cells were incubated in 96-well tissue culture plates (4×10^5/well for primary cells and 1×10^5 for cells lines) at 37° C. in 5% CO2 in complete culture medium using 55 μM of different Peripherin peptides. For proliferation assays, cells were labelled with CFSE (C34554, life technologies). After 1 hour, 24 hours or 48 hours, cells were analysed by flow cytometry and culture supernatants stored at −80° C. until use.
Culture supernatants from mice proliferation assays were collected and IL-2, IL-4, IL-6, IFN-γ, IL-10, TNF-α and IL-17 cytokine amounts analysed by flow cytometry using CBA kit (560485, BD). For human cell cultures, the Legendplex Kit was used (BioLegend, 740502), which studied cytokines IL-12p70, TNF-α, IL-6, IL-4, IL-10, IL-1β, arginase, IL-1st, IL-12p40, IL-23, IFN-γ and IP-10.

[5] = system: bone marrow cells; experiment: Apoptosis assay of NOD.RAG2−/− bone marrow cells; type: cell-based, mouse; settings: bone marrow cells (FIG. 13)
Experimental: FIG. 13—Representative dot plots of apoptosis assay of NOD.RAG2−/− bone marrow cells after culturing them with different peptides. Annexin V and PI positive cells were analysed after culturing 4×10^5 cells for 24 hours or 48 hours with peptide 72, or DIF-P, or DIF-P3K, or without stimulus (n=4).
as §2, §3

Structure (SMILES) | induction of apoptosis and/or pyroptosis [1] | induction of apoptosis and/or pyroptosis [2] | pyroptosis (comparison between peptides) [2] | induction of apoptosis and/or pyroptosis [3] | release of TNF-α [4] | induction of apoptosis and/or pyroptosis [5] | release of IL-6 and IL-4 to the culture medium [4]
CC[C@H](C)[C@H](NC(=O)[C@H](CCC(=O)O)NC(=O)[C@@H](NC(=O)[C@H](CC(=O)O)NC(=O)[C@H](CC(C)C)NC(=O)[C@H](C)NC(=O)[C@H](CCSC)NC(=O)[C@H](CCCCN)NC(=O)[C@@H](NC(=O)[C@H](CC(N)=O)NC(=O)[C@H](CC(C)C)NC(=O)[C@@H](N)CC(C)C)C(C)C)[C@@H](C)CC)C(=O)N[C@@H](CCCCN)C(=O)N[C@@H](CCCCN)C(=O)N[C@@H](CCCCN)C(=O)O [DIF-P3K, LLNVKMALDIEIKKK] | more efficient than peptide DIF-P | induce apoptosis and/or pyroptosis | significant percentage of pyroptosis compared to peptide DIF-P | more efficient than peptide DIF-P | more efficient at inducing release of TNF-α | more efficient than peptide DIF-P | –
CC[C@H](C)[C@H](NC(=O)[C@H](CCC(=O)O)NC(=O)[C@@H](NC(=O)[C@H](CC(=O)O)NC(=O)[C@H](CC(C)C)NC(=O)[C@H](C)NC(=O)[C@H](CCSC)NC(=O)[C@H](CCCCN)NC(=O)[C@@H](NC(=O)[C@H](CC(N)=O)NC(=O)[C@H](CC(C)C)NC(=O)[C@@H](N)CC(C)C)C(C)C)[C@@H](C)CC)C(=O)N[C@@H](CCCNC(=N)N)C(=O)N[C@@H](CCCNC(=N)N)C(=O)N[C@@H](CCCNC(=N)N)C(=O)N[C@@H](CCCNC(=N)N)C(=O)N[C@@H](CCCNC(=N)N)C(=O)N[C@@H](CCCNC(=N)N)C(=O)N[C@@H](CCCNC(=N)N)C(=O)N[C@@H](CCCNC(=N)N)C(=O)O [DIF-P8R] | more efficient than peptide DIF-P | induce apoptosis and/or pyroptosis | almost no pyroptosis | more efficient than peptide DIF-P | – | more efficient than peptide DIF-P | particularly significant
